Measurements from patent US20120107275A1, “FUSED HETEROCYCLIC DERIVATIVES AND METHODS OF USE” (Amgen Inc., priority 2006, published 2012).

Amino acid sequences for entries named in this document (tags omitted). Residues count along the entry.
UniProt P08581, 1058-1365: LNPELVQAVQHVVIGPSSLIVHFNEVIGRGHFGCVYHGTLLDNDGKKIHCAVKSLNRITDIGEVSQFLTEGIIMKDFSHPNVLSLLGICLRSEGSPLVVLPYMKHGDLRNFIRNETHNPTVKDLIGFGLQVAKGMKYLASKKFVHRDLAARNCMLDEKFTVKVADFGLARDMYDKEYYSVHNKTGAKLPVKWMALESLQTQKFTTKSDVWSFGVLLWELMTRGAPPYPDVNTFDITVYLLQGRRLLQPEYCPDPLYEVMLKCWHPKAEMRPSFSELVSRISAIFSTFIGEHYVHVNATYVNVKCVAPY

Biological target: T1, c-Met kinase domain (GST-cMet) (Homo sapiens, UniProt P08581)
T1 construct: A PCR product covering residues 1058-1365 of c-Met (c-Met kinase domain); made in house; host or cells: High5 insect cells (baculovirus, BacToBac)
Experiment: c-Met receptor assay (HTRF kinase assay with GST-cMet (P) enzyme, gastrin and ATP)
Assay type: biochemical
Settings: illustrative activity values
Procedure: Cloning, Expression and Purification of c-Met Kinase Domain
The PCR product is cloned into a modified pFastBac1 expression vector (harboring the gene for S. japonicum glutathione S-transferase immediately upstream of the multiple cloning site) using standard molecular biological techniques. The GST-c-Met kinase domain fusion (GST-Met) gene is transposed into full-length baculovirus DNA using the BacToBac™ system (Invitrogen). High5 cells are infected with the recombinant baculovirus for 72 h at 27° C. The infected cells are harvested by centrifugation and the pellet is stored at −80° C. […] Eluted fractions are analyzed by SDS-PAGE and concentrated to <10 mL (˜10 mg/mL total protein). […] The fractions are analyzed by SDS-PAGE and the appropriate fractions are pooled and concentrated to ˜1 mg/mL. […]
The resin is washed with 10 column volumes (100 mL) of Lysis Buffer. […] Fractions with significant OD280 readings are run on another 12% Tris Glycine gel. The peak tubes with GST-cMET are pooled and the OD280 is read with the column buffer listed above as the blank buffer. […]
After incubation, the solution is concentrated in a Vivaspin 20 ml Concentrator to a volume less than 2.00 ml. […] Fractions are pooled and the OD280 is read with the column buffer used as the blank. […]
KM ATP, KM gastrin for various enzymes were determined by HTRF/^33P labeling and HTRF methods.

Ki: 172 nM
Structure (SMILES): Cn1cc(-c2ccc3onc(C(F)(F)c4ccc5ncccc5c4)c3n2)cn1 [Example 440, 6-(difluoro(5-(1-methyl-1H-pyrazol-4-yl)isoxazolo[4,5-b]pyridin-3-yl)methyl)quinoline]
